Ab-95 light chain CDR variants: yeast mating affinities

Data: MIT Lincoln Laboratory AlphaSeq set, Engelhart et al. 2022, doi:10.1038/s41597-022-01779-4, as distributed in FLAb.

Target: peptide PDVDLGDISGINAS, taken from heptad repeat 2 (HR2) of SARS-CoV-2 spike.

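Phage display of a naive human antibody library on the peptide gave the parent. In library AAYL52, one, two or three CDR residues were substituted; doubles and triples were drawn at random. In AlphaSeq, yeast of one mating type display the scFv and yeast of the other type display the target. Binding brings cells together so that they mate, and sequencing counts the barcode pairs among the diploids. Each replicate has its own calibration line, from reference interactions of the BCL2 family. Each pool was mated in three replicate cultures.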

The variants keep the heavy chain, the linker and the frameworks of Ab-95 (scFv order VH, a (GGGGS)3 linker, VL).
VH: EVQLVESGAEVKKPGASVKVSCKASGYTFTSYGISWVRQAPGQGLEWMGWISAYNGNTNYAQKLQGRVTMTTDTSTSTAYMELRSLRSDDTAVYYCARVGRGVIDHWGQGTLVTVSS
VL: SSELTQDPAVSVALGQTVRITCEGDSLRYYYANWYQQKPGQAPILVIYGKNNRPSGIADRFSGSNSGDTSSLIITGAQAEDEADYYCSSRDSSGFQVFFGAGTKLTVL

Each variant is given by its three light chain CDRs, as the data file delimits them; those of the parent are EGDSLRYYYAN, GKNNRPS, SSRDSSGFQVF. These are single substitutions, in order of position. Numbers give log10(Kd / nM), so 0 is 1 nM and 3 is 1 µM. Smaller is tighter. Averages over replicates are reported, and they cover detected replicates only. "no signal" marks a missing value. The strain was present, yet no cells mated with the target were sequenced in any replicate, which points to weak or no binding. In this assay the parent's reference entry averaged 2.31; its copy inside this library read 2.25. As a blank, each scFv also met three strains without target: over library AAYL52, 28% of these pairings were detected, typically at 3.91 and seldom below 2.90. The control count says in how many pairings with the empty strains this scFv gave a signal.

CDR-L1	CDR-L2	CDR-L3	mean log10 Kd (nM)	replicates with signal	control signals
EGDSLRYYYAN	GKNNRPS	SHRDSSGFQVF	2.27	3 of 3	5 of 9
EGDSLRYYYAN	GKNNRPS	SERDSSGFQVF	no signal	0 of 3	2 of 9
EGDSLRYYYAN	GKNNRPS	SCRDSSGFQVF	1.99	3 of 3	3 of 9
EGDSLRYYYAN	GKNNRPS	SLRDSSGFQVF	3.19	3 of 3	1 of 9
EGDSLRYYYAN	GKNNRPS	SYRDSSGFQVF	2.30	3 of 3	2 of 9
EGDSLRYYYAN	GKNNRPS	SWRDSSGFQVF	2.11	3 of 3	3 of 9
EGDSLRYYYAN	GKNNRPS	SDRDSSGFQVF	2.60	3 of 3	4 of 9
EGDSLRYYYAN	GKNNRPS	SIRDSSGFQVF	2.14	3 of 3	4 of 9
EGDSLRYYYAN	GKNNRPS	SQRDSSGFQVF	4.02	2 of 3	3 of 9
EGDSLRYYYAN	GKNNRPS	SNRDSSGFQVF	3.21	2 of 3	3 of 9
EGDSLRYYYAN	GKNNRPS	SMRDSSGFQVF	3.51	3 of 3	0 of 9
EGDSLRYYYAN	GKNNRPS	SARDSSGFQVF	1.38	3 of 3	1 of 9
EGDSLRYYYAN	GKNNRPS	SRRDSSGFQVF	5.07	1 of 3	1 of 9
EGDSLRYYYAN	GKNNRPS	SVRDSSGFQVF	2.08	3 of 3	4 of 9
EGDSLRYYYAN	GKNNRPS	STRDSSGFQVF	2.66	3 of 3	2 of 9
EGDSLRYYYAN	GKNNRPS	SPRDSSGFQVF	1.97	3 of 3	0 of 9
EGDSLRYYYAN	GKNNRPS	SFRDSSGFQVF	2.90	3 of 3	4 of 9
EGDSLRYYYAN	GKNNRPS	SKRDSSGFQVF	3.63	3 of 3	2 of 9
EGDSLRYYYAN	GKNNRPS	SSNDSSGFQVF	2.40	3 of 3	1 of 9
EGDSLRYYYAN	GKNNRPS	SSMDSSGFQVF	2.11	3 of 3	3 of 9
EGDSLRYYYAN	GKNNRPS	SSTDSSGFQVF	2.42	3 of 3	2 of 9
EGDSLRYYYAN	GKNNRPS	SSPDSSGFQVF	2.33	3 of 3	1 of 9
EGDSLRYYYAN	GKNNRPS	SSHDSSGFQVF	3.74	2 of 3	1 of 9
EGDSLRYYYAN	GKNNRPS	SSFDSSGFQVF	no signal	0 of 3	1 of 9
EGDSLRYYYAN	GKNNRPS	SSWDSSGFQVF	2.68	3 of 3	4 of 9
EGDSLRYYYAN	GKNNRPS	SSVDSSGFQVF	3.13	3 of 3	4 of 9
EGDSLRYYYAN	GKNNRPS	SSADSSGFQVF	1.55	3 of 3	3 of 9
EGDSLRYYYAN	GKNNRPS	SSGDSSGFQVF	3.20	3 of 3	2 of 9
EGDSLRYYYAN	GKNNRPS	SSDDSSGFQVF	2.93	2 of 3	1 of 9
EGDSLRYYYAN	GKNNRPS	SSIDSSGFQVF	4.46	2 of 3	1 of 9
EGDSLRYYYAN	GKNNRPS	SSQDSSGFQVF	4.05	3 of 3	2 of 9
EGDSLRYYYAN	GKNNRPS	SSSDSSGFQVF	3.77	3 of 3	0 of 9
EGDSLRYYYAN	GKNNRPS	SSCDSSGFQVF	2.50	3 of 3	1 of 9
EGDSLRYYYAN	GKNNRPS	SSEDSSGFQVF	4.41	2 of 3	4 of 9
EGDSLRYYYAN	GKNNRPS	SSYDSSGFQVF	3.09	3 of 3	4 of 9
EGDSLRYYYAN	GKNNRPS	SSLDSSGFQVF	3.94	2 of 3	5 of 9
EGDSLRYYYAN	GKNNRPS	SSKDSSGFQVF	2.48	3 of 3	4 of 9
EGDSLRYYYAN	GKNNRPS	SSRWSSGFQVF	3.39	2 of 3	1 of 9
EGDSLRYYYAN	GKNNRPS	SSRNSSGFQVF	3.29	1 of 3	2 of 9
EGDSLRYYYAN	GKNNRPS	SSRMSSGFQVF	1.89	3 of 3	1 of 9
EGDSLRYYYAN	GKNNRPS	SSRYSSGFQVF	3.58	1 of 3	0 of 9
EGDSLRYYYAN	GKNNRPS	SSRTSSGFQVF	2.83	3 of 3	2 of 9
EGDSLRYYYAN	GKNNRPS	SSRRSSGFQVF	2.30	3 of 3	3 of 9
EGDSLRYYYAN	GKNNRPS	SSRFSSGFQVF	2.15	3 of 3	2 of 9
EGDSLRYYYAN	GKNNRPS	SSRISSGFQVF	2.94	1 of 3	1 of 9
EGDSLRYYYAN	GKNNRPS	SSRKSSGFQVF	2.77	3 of 3	3 of 9
EGDSLRYYYAN	GKNNRPS	SSRLSSGFQVF	3.72	3 of 3	5 of 9
EGDSLRYYYAN	GKNNRPS	SSRVSSGFQVF	4.34	3 of 3	2 of 9
EGDSLRYYYAN	GKNNRPS	SSRSSSGFQVF	2.34	3 of 3	1 of 9
EGDSLRYYYAN	GKNNRPS	SSRGSSGFQVF	2.05	3 of 3	4 of 9
EGDSLRYYYAN	GKNNRPS	SSRPSSGFQVF	3.71	2 of 3	3 of 9
EGDSLRYYYAN	GKNNRPS	SSRQSSGFQVF	2.82	3 of 3	4 of 9
EGDSLRYYYAN	GKNNRPS	SSRASSGFQVF	3.37	3 of 3	3 of 9
EGDSLRYYYAN	GKNNRPS	SSRESSGFQVF	3.26	2 of 3	2 of 9
EGDSLRYYYAN	GKNNRPS	SSRHSSGFQVF	2.19	2 of 3	1 of 9
EGDSLRYYYAN	GKNNRPS	SSRCSSGFQVF	no signal	0 of 3	0 of 9
EGDSLRYYYAN	GKNNRPS	SSRDNSGFQVF	2.22	3 of 3	3 of 9
EGDSLRYYYAN	GKNNRPS	SSRDHSGFQVF	2.55	3 of 3	4 of 9
EGDSLRYYYAN	GKNNRPS	SSRDCSGFQVF	3.85	3 of 3	2 of 9
EGDSLRYYYAN	GKNNRPS	SSRDLSGFQVF	2.66	3 of 3	3 of 9
EGDSLRYYYAN	GKNNRPS	SSRDPSGFQVF	2.45	3 of 3	4 of 9
EGDSLRYYYAN	GKNNRPS	SSRDVSGFQVF	2.12	3 of 3	5 of 9
EGDSLRYYYAN	GKNNRPS	SSRDASGFQVF	1.64	3 of 3	1 of 9
EGDSLRYYYAN	GKNNRPS	SSRDWSGFQVF	2.45	3 of 3	3 of 9
EGDSLRYYYAN	GKNNRPS	SSRDGSGFQVF	2.31	3 of 3	2 of 9

The opening 10 entries, copied out:

| CDR-L1 | CDR-L2 | CDR-L3 | mean log10 Kd (nM) | replicates with signal | control signals |
|---|---|---|---|---|---|
| EGDSLRYYYAN | GKNNRPS | SHRDSSGFQVF | 2.27 | 3 of 3 | 5 of 9 |
| EGDSLRYYYAN | GKNNRPS | SERDSSGFQVF | no signal | 0 of 3 | 2 of 9 |
| EGDSLRYYYAN | GKNNRPS | SCRDSSGFQVF | 1.99 | 3 of 3 | 3 of 9 |
| EGDSLRYYYAN | GKNNRPS | SLRDSSGFQVF | 3.19 | 3 of 3 | 1 of 9 |
| EGDSLRYYYAN | GKNNRPS | SYRDSSGFQVF | 2.30 | 3 of 3 | 2 of 9 |
| EGDSLRYYYAN | GKNNRPS | SWRDSSGFQVF | 2.11 | 3 of 3 | 3 of 9 |
| EGDSLRYYYAN | GKNNRPS | SDRDSSGFQVF | 2.60 | 3 of 3 | 4 of 9 |
| EGDSLRYYYAN | GKNNRPS | SIRDSSGFQVF | 2.14 | 3 of 3 | 4 of 9 |
| EGDSLRYYYAN | GKNNRPS | SQRDSSGFQVF | 4.02 | 2 of 3 | 3 of 9 |
| EGDSLRYYYAN | GKNNRPS | SNRDSSGFQVF | 3.21 | 2 of 3 | 3 of 9 |